Measured values reported in publication PMC7723054.
The list shows a part of the results.

T1: LIN28A (human?, UniProt Q9H9Z2 1-209)
T1 sequence: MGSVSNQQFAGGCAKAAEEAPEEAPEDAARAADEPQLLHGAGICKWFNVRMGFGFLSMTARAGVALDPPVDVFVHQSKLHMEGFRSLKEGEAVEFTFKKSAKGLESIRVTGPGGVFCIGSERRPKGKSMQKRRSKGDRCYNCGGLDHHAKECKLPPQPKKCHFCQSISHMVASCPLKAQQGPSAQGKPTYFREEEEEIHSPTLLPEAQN

T2: CIRBP (Homo sapiens, UniProt Q14011 1-172)
T2 sequence: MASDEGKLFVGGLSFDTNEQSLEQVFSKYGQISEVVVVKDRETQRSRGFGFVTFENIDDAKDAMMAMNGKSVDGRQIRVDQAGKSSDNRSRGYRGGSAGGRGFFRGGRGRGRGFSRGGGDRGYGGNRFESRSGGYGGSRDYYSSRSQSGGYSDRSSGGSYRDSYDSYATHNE

T3: DHX36 (Homo sapiens, UniProt Q9H2U1 1-1008)
T3 sequence: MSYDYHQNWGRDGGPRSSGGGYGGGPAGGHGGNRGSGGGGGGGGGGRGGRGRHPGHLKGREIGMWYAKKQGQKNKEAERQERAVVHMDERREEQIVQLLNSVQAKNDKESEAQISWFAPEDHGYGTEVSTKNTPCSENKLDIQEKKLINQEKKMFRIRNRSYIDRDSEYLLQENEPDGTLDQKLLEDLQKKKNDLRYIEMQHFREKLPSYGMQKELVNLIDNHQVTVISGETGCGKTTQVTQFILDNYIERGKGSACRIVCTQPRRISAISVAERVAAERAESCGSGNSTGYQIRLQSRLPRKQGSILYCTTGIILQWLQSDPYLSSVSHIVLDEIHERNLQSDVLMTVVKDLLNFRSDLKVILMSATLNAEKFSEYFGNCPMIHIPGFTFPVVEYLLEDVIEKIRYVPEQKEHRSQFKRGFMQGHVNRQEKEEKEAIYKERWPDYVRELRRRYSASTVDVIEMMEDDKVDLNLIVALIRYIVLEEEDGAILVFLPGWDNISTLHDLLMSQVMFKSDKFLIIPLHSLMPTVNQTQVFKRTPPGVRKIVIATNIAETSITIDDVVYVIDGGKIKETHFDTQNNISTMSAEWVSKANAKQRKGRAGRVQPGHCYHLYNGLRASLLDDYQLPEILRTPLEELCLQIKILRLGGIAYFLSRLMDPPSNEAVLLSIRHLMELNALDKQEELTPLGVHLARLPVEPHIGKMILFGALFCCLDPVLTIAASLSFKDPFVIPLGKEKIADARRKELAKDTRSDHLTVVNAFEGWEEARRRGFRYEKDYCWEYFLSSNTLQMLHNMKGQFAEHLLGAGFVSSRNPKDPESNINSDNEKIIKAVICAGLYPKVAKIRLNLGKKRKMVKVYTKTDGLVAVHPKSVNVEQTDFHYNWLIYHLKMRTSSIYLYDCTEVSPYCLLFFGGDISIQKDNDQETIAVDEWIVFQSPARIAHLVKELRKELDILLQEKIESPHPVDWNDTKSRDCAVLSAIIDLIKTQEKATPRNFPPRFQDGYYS


Assays:
Assay in all cases: FOREST: bead pull-down of RNA structure library v1, barcode microarray; U1A/LIN28A: 20 mM HEPES pH 7.5, 80 mM KCl, 20 mM NaCl, 10% glycerol, 2 mM DTT, 0.1 ug/uL BSA, 4 C; BG4/CIRBP/DHX36: 10 mM Tris-HCl pH 7.5, 100 mM KCl (or LiCl),; high values mean tight binding
[1] = target: U1A (Homo sapiens, UniProt P09012)
[2] = target: T1, LIN28A
[3] = target: T2, CIRBP
[4] = target: T3, DHX36

| Binder | binding signal [1] | binding signal [2] | binding signal [3] | binding signal [4] |
| --- | --- | --- | --- | --- |
| hsa-mir-3140 (structured_RNA) RNA: GGGCCACGGACAAAACAGAGCCUCAGUCGGUGUACGAAGUUUCAGCAGCUUUAUGUAUUCUGAAGUUAUUGAAAAUAAGAGCUGCUGAAGCUUCGUGCAC | 0.869 z-score | 0.953 z-score | 0.577 z-score | 0.44 z-score |
| hsa-mir-6810 (structured_RNA) RNA: GGGAAACCAUGCACUAGAUCAUAGGACUGGUGUACGAAGUUUCAGCUGGCACAGAUCCAAUACCUUCUGUCCCCGCUGAAGCUUCGUGCAC | 0.873 z-score | 0.242 z-score | 0.431 z-score | -0.239 z-score |
| hsa-mir-3190 (structured_RNA) RNA: GGGAAACUGUAGAACGAGUUAAACCGCUGGUGUACGAAGUUUCAGCCCCACGGCCCUUGUCAGUGUGGCUGAAGCUUCGUGCAC | 0.886 z-score | -0.0294 z-score | -0.912 z-score | -0.176 z-score |
| PARIS_ID8 (structured_RNA) RNA: GGGAAAUAUCCAGACGGCACGACACACGGGUGUACGAAGUUUCAGCGGGCUGUGGAGUGUAUGAAUUUAUAAAUCACUGGUCUGCUGAAGCUUCGUGCAC | 0.881 z-score | 0.07 z-score | -0.218 z-score | -0.628 z-score |
| hsa-mir-33b (structured_RNA) RNA: GGGAAUAACACACCGCUCGGUGACCAGGGGUGUACGAAGUUUCAGCAUUGCACGUGUGUGAGGCGGGUGCAGUGCUGAAGCUUCGUGCAC | 2.35 z-score | -0.737 z-score | -0.939 z-score | -0.589 z-score |
| hsa-mir-3689f (structured_RNA) RNA: GGGAAGGGAACUCACAAUCUGUACGAAUGGUGUACGAAGUUUCAGCGGGACGUGUGAUGCUGUGCUUCCUGCUGAAGCUUCGUGCAC | 0.867 z-score | 0.773 z-score | 1.13 z-score | 0.883 z-score |
| hsa-mir-6083 (structured_RNA) RNA: GGGACUAGCGUUCGUAUAGCAAUCCUGAGGUGUACGAAGUUUCAGCAGGUGGAAAGGGAGCAGGAGCAUCGUCUUUAAGAGGGUCAGGUACCUUUGCUCUUAGCUGAAGCUUCGUGCAC | 0.855 z-score | 1.14 z-score | 0.122 z-score | 1.28 z-score |
| hsa-mir-8081 (structured_RNA) RNA: GGGAAGCUAACGGGACAUACCAGAGUAAGGUGUACGAAGUUUCAGCCUAUGGCCCCCCUCCUCUCUGAAAGCAAGGCCACUUGGCUGAAGCUUCGUGCAC | 0.891 z-score | 0.39 z-score | 0.0446 z-score | 1.36 z-score |
| hsa-mir-7-3 (structured_RNA) RNA: GGGAAAUGUAGCUCCCCUUUAGCGGAUUGGUGUACGAAGUUUCAGCUUGUUCUGAUGUACUACGACAAGCUGAAGCUUCGUGCAC | 0.861 z-score | 0.953 z-score | 0.911 z-score | -0.176 z-score |
| hsa-mir-610 (structured_RNA) RNA: GGGACAGUGGUAAUCUUGCCACCACGACGGUGUACGAAGUUUCAGCGGGACACAUUUGAGCCAAAUGUCCCGCUGAAGCUUCGUGCAC | 0.856 z-score | -0.998 z-score | -1.05 z-score | -0.42 z-score |
| hsa-mir-153-1 (structured_RNA) RNA: GGGAAAGGGGCUCACCAAUUCACGCAAUGGUGUACGAAGUUUCAGCGCAGCUAGUAUUCUCACUCCAGUUGCGCUGAAGCUUCGUGCAC | 0.885 z-score | -1.77 z-score | -0.056 z-score | -0.759 z-score |
| hsa-mir-373 (structured_RNA) RNA: GGGACCGUCUAAGUCCGCAAUGUCCGAGGGUGUACGAAGUUUCAGCCUUUCCUUUUUGUCUGUACUGGGAAGGCUGAAGCUUCGUGCAC | 0.876 z-score | 0.64 z-score | 0.0694 z-score | 0.075 z-score |
| hsa-mir-1294 (structured_RNA) RNA: GGGCACACACCAAUAGGGGUACAGCAACGGUGUACGAAGUUUCAGCGUCUGGCAUUGUCUGAUAUACGCUGAAGCUUCGUGCAC | 0.885 z-score | -0.397 z-score | -0.877 z-score | 0.14 z-score |
| hsa-mir-8485 (structured_RNA) RNA: GGGAAGCUUUUCGAAACUUGGAUGUGGCGGUGUACGAAGUUUCAGCUGUAUAUAGCAUAUGUGUAUACAUACACACACACACACACACACACACAGCUGAAGCUUCGUGCAC | 2.39 z-score | 1.09 z-score | 0.263 z-score | 1.18 z-score |
| hsa-mir-3183 (structured_RNA) RNA: GGGAACGAGUGCCCCUAUUUGCCUGAAUGGUGUACGAAGUUUCAGCCGGAGCAGUCACGUUGACGGAAUCCUCCGGCUGAAGCUUCGUGCAC | 0.859 z-score | -1.35 z-score | 0.145 z-score | -0.314 z-score |
| hsa-mir-548o (structured_RNA) RNA: GGGAAGGGCUGGCAUCCAACGGAAUUACGGUGUACGAAGUUUCAGCAUGGUUCCUAUUCUGAUCAAUAAACAUGGUUUGAGCCUAGUUACAAUGAUCUAAAAUUCACGGUCCAAGCUGAAGCUUCGUGCAC | 0.865 z-score | 0.613 z-score | 0.582 z-score | 0.855 z-score |
| hsa-mir-4789 (structured_RNA) RNA: GGGAAUAGUCUUGAAUGCUGGCCCGAAAGGUGUACGAAGUUUCAGCUGUAUGUGUAAAUACAUAUCCACACAGCUGAAGCUUCGUGCAC | 0.891 z-score | 0.293 z-score | 0.325 z-score | -0.516 z-score |
| hsa-mir-663b (structured_RNA) RNA: GGGAAGUACAUGCAAGGAUUUAAGCCGUGGUGUACGAAGUUUCAGCUCCUAGGCGGGUCGCUGCGGUACCUCCCUCCUGUCUGUGGCGGUGGGAUCCCGUGGCCGUGUUUUCCUGGUGGCUGAAGCUUCGUGCAC | 0.856 z-score | 0.214 z-score | -0.766 z-score | 0.0778 z-score |
| hsa-mir-3605 (structured_RNA) RNA: GGGACGGGAAACCCAAAUCUUCAUUAGGGGUGUACGAAGUUUCAGCGAAGCCGCUCCCACCUGACCCUCACGGCCUCGCUGAAGCUUCGUGCAC | 0.853 z-score | -1.62 z-score | -1.14 z-score | -0.254 z-score |
| hsa-mir-4278 (structured_RNA) RNA: GGGAAAGUCAUAGACCGGAGUCUUCCUAGGUGUACGAAGUUUCAGCAUAGAACAUUGACAUCAACACUAGGCUGAAGCUUCGUGCAC | 0.852 z-score | 0.43 z-score | -1.36 z-score | -1.11 z-score |
| hsa-mir-3181 (structured_RNA) RNA: GGGAAGUCAGGGAUUAUAUCGAAAGCACGGUGUACGAAGUUUCAGCCCGGCCCGUUAGUUGCCCGGGCCCGGCUGAAGCUUCGUGCAC | 0.874 z-score | 0.801 z-score | 0.825 z-score | 0.485 z-score |
| hsa-mir-5683 (structured_RNA) RNA: GGGACAGGGUCAUUAUCGCCCAUGAAUUGGUGUACGAAGUUUCAGCCUUCUUACUGCACCAGUGAAGGCUGAAGCUUCGUGCAC | 0.854 z-score | -1.9 z-score | -1.96 z-score | -0.466 z-score |
